Data on one compound can be found in PMC9254107, “The Toxoplasma glucan phosphatase TgLaforin utilizes a distinct functional mechanism that can be exploited by therapeutic inhibitors” (The Journal of Biological Chemistry, 2022).

The target of one assay is T1, PTP1B (Homo sapiens, UniProt P18031).
T1 sequence (P18031 1-435): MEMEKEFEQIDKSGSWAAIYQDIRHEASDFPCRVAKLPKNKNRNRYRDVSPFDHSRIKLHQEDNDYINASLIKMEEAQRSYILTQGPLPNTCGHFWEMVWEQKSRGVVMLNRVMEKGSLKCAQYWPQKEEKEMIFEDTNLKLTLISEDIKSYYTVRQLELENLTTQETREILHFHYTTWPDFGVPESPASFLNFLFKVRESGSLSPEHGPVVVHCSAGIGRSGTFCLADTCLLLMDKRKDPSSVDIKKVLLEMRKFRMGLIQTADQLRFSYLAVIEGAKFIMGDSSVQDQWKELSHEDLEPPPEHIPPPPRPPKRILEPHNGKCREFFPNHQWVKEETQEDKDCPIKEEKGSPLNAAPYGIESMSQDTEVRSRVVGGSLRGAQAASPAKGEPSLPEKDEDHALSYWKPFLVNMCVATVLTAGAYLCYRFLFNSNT
The experiment in a line: pNPP phosphatase assay. The format is biochemical.

The test system of assay [1] is calf intestinal phosphatase (CIP). The format is biochemical. Particulars: pNPP assay.

The structures appear in SMILES notation.

For the compound `O=C(Nc1ccc(Oc2ccccc2)cc1)C(=O)Nc1ccccc1NC(=O)C(c1ccccc1)S(=O)(=O)O` (centres unmarked) [L319-21-M49, 2-oxo-2-((2-(2-oxo-2-((4-phenoxyphenyl)amino)acetamido)phenyl)amino)-1-phenylethanesulfonic acid], on PTP1B, the “selectivity toward TgLaforin compared to PTP1B” value is “at least 100 fold”. Besides, in assay [1], the “selectivity toward TgLaforin compared to CIP” value was “at least 100 fold”.
